Literature values, collected in publication PMC10534581, “Therapeutic Drug Monitoring in Children and Adolescents: Findings on Fluoxetine from the TDM-VIGIL Trial” (Pharmaceutics, 2023).

Test system: serotonin transporters (5-HTT)
Set-up: method as in PMID 15121647
Conditions: achieved on average at a dose of 20 mg, adults; cited from earlier work

SMILES: CNCCC(Oc1ccc(C(F)(F)F)cc1)c1ccccc1 (stereo not shown) [FLX, Fluoxetine]
- occupancy of serotonin transporters (5-HTT): 80%
